# In US20120121591A1 (priority 2009, published 2012):
# Protein sequences, listed by entry. Tags and fused reporters are not part of them.
# UniProt Q09470, whole entry: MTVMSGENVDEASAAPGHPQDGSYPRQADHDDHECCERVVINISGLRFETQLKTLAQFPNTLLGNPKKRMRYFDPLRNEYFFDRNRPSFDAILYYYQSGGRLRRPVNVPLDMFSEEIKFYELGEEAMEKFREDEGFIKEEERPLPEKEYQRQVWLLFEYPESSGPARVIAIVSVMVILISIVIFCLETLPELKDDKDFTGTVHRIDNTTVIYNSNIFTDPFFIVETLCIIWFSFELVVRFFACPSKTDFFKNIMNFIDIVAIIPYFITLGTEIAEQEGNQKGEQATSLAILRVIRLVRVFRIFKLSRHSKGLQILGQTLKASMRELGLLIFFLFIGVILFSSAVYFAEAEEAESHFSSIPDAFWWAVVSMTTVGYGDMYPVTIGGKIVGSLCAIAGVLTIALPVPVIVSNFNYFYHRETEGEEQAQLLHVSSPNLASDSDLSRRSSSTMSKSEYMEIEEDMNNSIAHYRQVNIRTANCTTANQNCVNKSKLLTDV
# UniProt P22001, whole entry: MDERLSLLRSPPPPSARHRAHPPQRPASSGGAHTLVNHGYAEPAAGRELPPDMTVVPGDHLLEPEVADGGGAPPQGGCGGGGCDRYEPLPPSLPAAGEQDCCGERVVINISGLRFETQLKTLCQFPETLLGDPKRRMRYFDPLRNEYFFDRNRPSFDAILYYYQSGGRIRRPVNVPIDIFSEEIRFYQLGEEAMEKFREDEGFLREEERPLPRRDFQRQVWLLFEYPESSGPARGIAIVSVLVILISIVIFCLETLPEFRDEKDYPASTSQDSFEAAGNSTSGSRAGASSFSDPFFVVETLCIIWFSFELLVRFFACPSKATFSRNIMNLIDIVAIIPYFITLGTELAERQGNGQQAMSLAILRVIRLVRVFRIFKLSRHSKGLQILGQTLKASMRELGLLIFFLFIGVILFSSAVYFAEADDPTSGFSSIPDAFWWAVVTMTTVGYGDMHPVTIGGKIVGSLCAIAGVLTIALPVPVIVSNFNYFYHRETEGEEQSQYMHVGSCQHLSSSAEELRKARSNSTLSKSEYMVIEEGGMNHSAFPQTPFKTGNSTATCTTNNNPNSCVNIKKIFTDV
# Assays:
# hKv1.1 = hKv1.1 (Homo sapiens, UniProt Q09470); assay: cell-based; conditions: Kv1.1 (IWQ) IC50 (nM, Avg)
# [1] = system: IFN-g secretion from T cells in human whole blood; assay type: cell-based; conditions: read-out: WB (IFNg) IC50 (nM, Avg)
# hKv1.3 = hKv1.3 (Homo sapiens, UniProt P22001); assay: cell-based; conditions: Kv1.3 (IWQ) IC50 (nM, Avg)
# [2] = system: human CD34-derived mast cells
# [3] = system: mouse peritoneal mast cells
# [4] = rat, in vivo, sc, cited from earlier work
# [5] = system: IL-2 secretion from T cells in human whole blood; assay type: cell-based; conditions: read-out: WB (IL-2) IC50 (nM, Avg)
smiles,measurement,setting,value
"CCCC[C@@H]1NC(=O)[C@H](CO)NC(=O)[C@H](Cc2c[nH]cn2)NC(=O)[C@H](CCCCN)NC(=O)[C@@H]2CSSC[C@@H]3NC(=O)[C@H]([C@@H](C)O)NC(=O)[C@H](CCCCN)NC(=O)[C@H](CCCNC(=N)N)NC(=O)[C@H](CSSC[C@H](NC(=O)[C@H](CCCNC(=N)N)NC(=O)[C@H](CO)NC(=O)[C@H](CCCCN)NC(=O)[C@@H]4CCCN4C(=O)[C@H]([C@@H](C)CC)NC(=O)[C@H]([C@@H](C)O)NC(=O)[C@H](CC(=O)O)NC(=O)[C@H]([C@@H](C)CC)NC(=O)[C@@H](NC(=O)[C@H](CO)NC(=O)[C@H](CCCNC(=N)N)NC(=O)COCCOCCNC(=O)[C@@H](N)Cc4ccc(OP(=O)(O)O)cc4)CSSC[C@@H](C(N)=O)NC(=O)[C@H]([C@@H](C)O)NC(=O)CNC3=O)C(=O)N[C@@H]([C@@H](C)O)C(=O)N[C@@H](C)C(=O)N[C@@H](Cc3ccccc3)C(=O)N[C@@H](CCC(N)=O)C(=O)N2)NC(=O)[C@H](Cc2ccccc2)NC(=O)[C@H](CO)NC(=O)[C@H](CC(C)C)NC(=O)[C@H](CCCNC(=N)N)NC(=O)[C@H](Cc2ccc(O)cc2)NC(=O)[C@H](CCCCN)NC1=O [[Nle21]ShK(L5)-amide, reference compound]",IC50,hKv1.1,0.03 nM
same,IC50,[1],0.492 nM
same,IC50,hKv1.3,0.17 nM
CCCC[C@@H]1NC(=O)[C@H](CO)NC(=O)[C@H](Cc2c[nH]cn2)NC(=O)[C@H](CCCCN)NC(=O)[C@@H]2CSSC[C@@H]3NC(=O)[C@H]([C@@H](C)O)NC(=O)[C@H](CCCCN)NC(=O)[C@H](CCCNC(=N)N)NC(=O)[C@H](CSSC[C@H](NC(=O)[C@H](CCCNC(=N)N)NC(=O)[C@H](CO)NC(=O)[C@H](CCCCN)NC(=O)[C@@H]4CCCN4C(=O)[C@H]([C@@H](C)CC)NC(=O)[C@H]([C@@H](C)O)NC(=O)[C@H](CC(=O)O)NC(=O)[C@H]([C@@H](C)CC)NC(=O)[C@@H](NC(=O)[C@H](CO)NC(=O)[C@H](CCCNC(=N)N)NC(=O)COCCOCCNC(=O)[C@@H](N)Cc4ccc(P(=O)(O)O)cc4)CSSC[C@@H](C(N)=O)NC(=O)[C@H]([C@@H](C)O)NC(=O)CNC3=O)C(=O)N[C@@H]([C@@H](C)O)C(=O)N[C@@H](C)C(=O)N[C@@H](Cc3ccccc3)C(=O)N[C@@H](CCC(N)=O)C(=O)N2)NC(=O)[C@H](Cc2ccccc2)NC(=O)[C@H](CO)NC(=O)[C@H](CC(C)C)NC(=O)[C@H](CCCNC(=N)N)NC(=O)[C@H](Cc2ccc(O)cc2)NC(=O)[C@H](CCCCN)NC1=O [ShK-192],Degranulation / histamine release of human CD34-derived mast cells,[2],did not degranulate
same,Degranulation / histamine release of mouse peritoneal mast cells,[3],did not degranulate
CC[C@H](C)[C@@H]1NC(=O)[C@@H](NC(=O)[C@H](CO)NC(=O)[C@H](CCCNC(=N)N)NC(=O)COCCOCCNC(=O)[C@@H](N)Cc2ccc(OP(=O)(O)O)cc2)CSSC[C@@H](C(=O)O)NC(=O)[C@H]([C@@H](C)O)NC(=O)CNC(=O)[C@@H]2CSSC[C@@H]3NC(=O)[C@H](CCC(N)=O)NC(=O)[C@H](Cc4ccccc4)NC(=O)[C@H](C)NC(=O)[C@H]([C@@H](C)O)NC(=O)[C@H](CSSC[C@H](NC(=O)[C@H](Cc4ccccc4)NC(=O)[C@H](CO)NC(=O)[C@H](CC(C)C)NC(=O)[C@H](CCCNC(=N)N)NC(=O)[C@H](Cc4ccc(O)cc4)NC(=O)[C@H](CCCCN)NC(=O)[C@H](CCSC)NC(=O)[C@H](CO)NC(=O)[C@H](Cc4cnc[nH]4)NC(=O)[C@H](CCCCN)NC3=O)C(=O)N[C@@H](CCCNC(=N)N)C(=O)N[C@@H](CCCCN)C(=O)N[C@@H]([C@@H](C)O)C(=O)N2)NC(=O)[C@H](CCCNC(=N)N)NC(=O)[C@H](CO)NC(=O)[C@H](CCCCN)NC(=O)[C@@H]2CCCN2C(=O)[C@H]([C@@H](C)CC)NC(=O)[C@H]([C@@H](C)O)NC(=O)[C@H](CC(=O)O)NC1=O [ShK-L5],AUC0-inf,[4]; 0.2 mg/kg,97
same,AUC0-t,[4]; 0.2 mg/kg,93 ng·h/mL
same,DNAUC (0-inf),[4]; 0.2 mg/kg,487
same,MRT,[4]; 0.2 mg/kg,2 h
same,Circulating half-life,[4],about 50 min
CC[C@H](C)[C@@H]1NC(=O)[C@@H](NC(=O)[C@H](CO)NC(=O)[C@@H](N)CCCNC(=N)N)CSSC[C@@H](C(=O)O)NC(=O)[C@H]([C@@H](C)O)NC(=O)CNC(=O)[C@@H]2CSSC[C@@H]3NC(=O)[C@H](CCC(N)=O)NC(=O)[C@H](Cc4ccccc4)NC(=O)[C@H](C)NC(=O)[C@H]([C@@H](C)O)NC(=O)[C@H](CSSC[C@H](NC(=O)[C@H](Cc4ccccc4)NC(=O)[C@H](Cc4cccc5ccccc45)NC(=O)[C@H](CC(C)C)NC(=O)[C@H](CCCNC(=N)N)NC(=O)[C@H](Cc4ccc(O)cc4)NC(=O)[C@H](CCCCN)NC(=O)[C@H](CCSC)NC(=O)[C@H](CO)NC(=O)[C@H](Cc4c[nH]cn4)NC(=O)[C@H](CCCCN)NC3=O)C(=O)N[C@@H](CCCNC(=N)N)C(=O)N[C@@H](CCCCN)C(=O)N[C@@H]([C@@H](C)O)C(=O)N2)NC(=O)[C@H](CCCNC(=N)N)NC(=O)[C@H](CO)NC(=O)[C@H](CCCCN)NC(=O)[C@@H]2CCCN2C(=O)[C@H]([C@@H](C)CC)NC(=O)[C@H]([C@@H](C)O)NC(=O)[C@H](CC(=O)O)NC1=O [[1-Nal26]ShK],IC50,[1],0.573 nM
same,IC50,hKv1.3,0.352 nM
same,IC50,[5],0.357 nM
